This note sets out measurements from patent US8940343B2, “Personal care composition” (Conopco Inc., priority 2010, dated 2015).

The conditions of this series: known phenolic antioxidants compared with theaflavin.

As to isobutein, the “stabilizing property for sunscreens” value is “did not provide the stabilizing property”.
